## scFv variants of Ab-14 (heavy chain) against a SARS-CoV-2 spike peptide

Values reported by Li et al. 2023, doi:10.1038/s41467-023-39022-2 (FLAb copy).

Antigen: PDVDLGDISGINAS, a 14-residue peptide of the SARS-CoV-2 spike HR2 region.

Each scFv is VH, a 15-residue (Gly4Ser)3 linker, VL, as in the parent Ab-14, and differs from it in the CDRs of the heavy chain only.
VH: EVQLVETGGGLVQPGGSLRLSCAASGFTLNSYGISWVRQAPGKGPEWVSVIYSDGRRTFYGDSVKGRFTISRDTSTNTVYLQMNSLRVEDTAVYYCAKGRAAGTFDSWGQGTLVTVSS
VL: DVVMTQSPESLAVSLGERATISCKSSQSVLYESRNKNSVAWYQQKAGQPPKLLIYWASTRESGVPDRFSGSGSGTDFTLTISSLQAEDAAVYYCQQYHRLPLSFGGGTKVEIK

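Phage display of a naive human antibody library on the peptide gave the parent. Designed CDR sequences, proposed from the first random library and measured here. Several design methods are mixed in this list. AlphaSeq pools MATa yeast showing the antibodies with MATalpha yeast showing the peptide. After mating in shaken culture at 30 °C for 16 h, diploids were selected and their barcode pairs sequenced. The ratio of observed to expected reads was calibrated, replicate by replicate, on BCL2-family standards whose Kd was known from biolayer interferometry. Mating was done six times.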

Sequences are complete VH domains. Variants here have at most six changes. The read-out is the apparent dissociation constant on a log10 scale (nM): the lower, the stronger. Replicates are averaged; those with no signal do not enter the mean. A pair that was not seen in that replicate is written "nd"; this usually means weak binding, but a binder can also be missed. The parent sequence was in this pool as ten entries: three were never detected, three once, and four in most replicates, with averages from 0.34 to 2.37. Empty control strains, which show no peptide, gave a signal in 1% of pairings with all heavy chain designs; the median was 2.08 and 95% of these signals were weaker than 0.84. No background was subtracted. The authors averaged sequences with at least three values out of six and counted those with two or fewer as poor binders. The range of this assay differs from that of the first round, and the authors advise against merging the two. Some sequences occur more than once in the pool; their replicates are listed entry by entry, parted by semicolons.

The variant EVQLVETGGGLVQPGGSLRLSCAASMFDLNSYGISWVRQAPGKGPEWVSVIYSDGRRTFYIDSVKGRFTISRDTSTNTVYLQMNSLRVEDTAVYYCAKGQEAGTFDSWGQGTLVTVSS showed 0.93, 1.61, nd, 1.10, 1.46, 1.50 (mean 1.32).
The variant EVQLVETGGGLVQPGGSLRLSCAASGFTLNDYGISWVRQAPGKGPEWVSVIYSDGRRTFYADSVKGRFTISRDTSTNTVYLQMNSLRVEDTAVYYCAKGRAAGTFDKWGQGTLVTVSS showed 0.52, 0.61, 0.61, 0.25, 1.20, -0.17 (mean 0.50).
The variant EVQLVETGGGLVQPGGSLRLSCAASGFTLLSYGISWVRQAPGKGPEWVSVIYSDGRRTFYGDAVKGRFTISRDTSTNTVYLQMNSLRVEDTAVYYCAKGRAAGTFDSWGQGTLVTVSS showed nd, nd, 2.00, 2.02, 3.32, nd (mean 2.45).
The variant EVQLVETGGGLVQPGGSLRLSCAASGFTLNSYGISWVRQAPGKGPEWVSVIYSDGRRTSYADSVKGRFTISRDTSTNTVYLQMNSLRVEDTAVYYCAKGRAAGTFDSWGQGTLVTVSS showed 1.02, 1.14, 1.31, 0.82, 1.12, 1.07 (mean 1.08).
The variant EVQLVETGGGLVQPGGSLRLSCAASGFTLNSYGISWVRQAPGKGPEWVSVIYSDGRRTFYTDSVKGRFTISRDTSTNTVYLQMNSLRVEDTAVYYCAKGKEAGTFDSWGQGTLVTVSS showed 0.98, 0.25, 0.63, 0.00, 0.60, 0.56 (mean 0.50).
The variant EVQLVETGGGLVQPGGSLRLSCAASGFTLNDYGISWVRQAPGKGPEWVSVIYSDGRRQFYGDSVKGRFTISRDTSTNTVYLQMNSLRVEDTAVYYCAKGRAAGTFDSWGQGTLVTVSS showed 1.31, 1.29, 1.54, 1.64, nd, 1.41 (mean 1.44).
The variant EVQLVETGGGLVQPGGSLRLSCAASDFTLNFYGISWVRQAPGKGPEWVSVIYSDGRRTFYSDSVKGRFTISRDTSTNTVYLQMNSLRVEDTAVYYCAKGRARGTFDSWGQGTLVTVSS showed nd, nd, nd, nd, nd, 0.89.
The variant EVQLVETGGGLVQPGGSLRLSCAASGFSLNSYGISWVRQAPGKGPEWVSVIYSDGRRTFYADSVKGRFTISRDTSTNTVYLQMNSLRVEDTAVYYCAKGRTAGKFDSWGQGTLVTVSS showed nd, nd, nd, nd, nd, nd.
The variant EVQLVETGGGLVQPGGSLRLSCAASGFTLESYGISWVRQAPGKGPEWVSVIYSDGRRTFYADSVKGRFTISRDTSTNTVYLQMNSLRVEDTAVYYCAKGRAAGTFDSWGQGTLVTVSS showed 1.67, 1.47, 1.13, 0.96, 0.87, 1.03 (mean 1.19).
The variant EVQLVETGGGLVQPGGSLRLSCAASGFELNAYGISWVRQAPGKGPEWVSVIYSDGRRTFYGDSVKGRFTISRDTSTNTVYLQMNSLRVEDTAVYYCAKGQTAGTFDSWGQGTLVTVSS showed 0.77, 1.36, 1.02, 0.94, 0.35, 0.61 (mean 0.84).
The variant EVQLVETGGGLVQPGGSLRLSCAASGFTLNSYGISWVRQAPGKGPEWVSVIYSDGRRTFYIDSVKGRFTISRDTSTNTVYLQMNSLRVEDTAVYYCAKGQLAGTFDRWGQGTLVTVSS showed nd, nd, 1.35, 2.04, 1.13, 2.40 (mean 1.73).
The variant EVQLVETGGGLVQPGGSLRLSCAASGFNLNSYGISWVRQAPGKGPEWVSVIYSDGRRTFYKDSVKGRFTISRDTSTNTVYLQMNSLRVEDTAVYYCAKGQNAGTFDSWGQGTLVTVSS showed nd, nd, nd, nd, 0.76, nd.
The variant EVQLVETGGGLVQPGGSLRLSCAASGFSLESYGISWVRQAPGKGPEWVSVIYSDGRRTFYADNVKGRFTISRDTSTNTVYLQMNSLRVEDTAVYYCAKGRTAGTFDSWGQGTLVTVSS showed 0.45, 0.01, -0.09, 0.00, -0.27, 0.02 (mean 0.02).
The variant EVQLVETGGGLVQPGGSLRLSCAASGFELNSYGISWVRQAPGKGPEWVSVIYSDGKRTFYGDQVKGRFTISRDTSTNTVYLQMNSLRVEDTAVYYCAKGRQAGTFDSWGQGTLVTVSS showed 1.95, 1.31, 1.46, 1.31, 1.61, 1.56 (mean 1.53).
The variant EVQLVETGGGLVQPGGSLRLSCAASRFTLNSYGISWVRQAPGKGPEWVSVIYSDGRRTFYIDSVKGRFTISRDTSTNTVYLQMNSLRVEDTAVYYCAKGKIAGTFDSWGQGTLVTVSS showed nd, nd, nd, nd, nd, nd.
The variant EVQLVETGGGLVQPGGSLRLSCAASGRTLNDYGISWVRQAPGKGPEWVSVIYSDGRRTQYIDSVKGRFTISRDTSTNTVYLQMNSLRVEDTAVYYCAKGRAAGTFDSWGQGTLVTVSS showed nd, nd, nd, nd, nd, nd.
The variant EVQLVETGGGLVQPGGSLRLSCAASGFTLNSYGISWVRQAPGKGPEWVSVIYADGRRTFYGDSVKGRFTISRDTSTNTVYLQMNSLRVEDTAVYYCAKGRTAGTFDAWGQGTLVTVSS showed 0.56, 0.28, 0.58, 0.37, 0.45, 0.33 (mean 0.43).
The variant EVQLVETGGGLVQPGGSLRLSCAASGFTLNSYGISWVRQAPGKGPEWVSVIYSDGRRTFYGDSVKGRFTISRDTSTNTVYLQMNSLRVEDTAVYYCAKGEAAGTFDTWGQGTLVTVSS showed nd, nd, nd, nd, nd, nd.
The variant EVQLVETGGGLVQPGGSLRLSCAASGFTLNSYGISWVRQAPGKGPEWVSVIYHDGRRTFYSDSVKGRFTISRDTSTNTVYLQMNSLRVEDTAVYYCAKGRAGGTFDSWGQGTLVTVSS showed nd, nd, nd, 1.92, 3.18, 1.85 (mean 2.32).
The variant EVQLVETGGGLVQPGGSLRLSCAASGFTLNSYGISWVRQAPGKGPEWVSVIYADGRRTFYSDSVKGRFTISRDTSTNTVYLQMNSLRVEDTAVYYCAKGRAAGTFDSWGQGTLVTVSS showed -0.22, -0.41, -0.37, -0.41, -0.46, -0.34; 0.09, 0.12, 0.02, -0.25, -0.32, 0.44 (mean -0.18).
The variant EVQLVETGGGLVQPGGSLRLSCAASGDELNSYGISWVRQAPGKGPEWVSVIYSDGRRTFYQDSVKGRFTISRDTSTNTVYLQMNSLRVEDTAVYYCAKGRAAGTFDSWGQGTLVTVSS showed nd, nd, nd, nd, nd, nd.
The variant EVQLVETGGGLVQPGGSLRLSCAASGFALNSYGISWVRQAPGKGPEWVSVIYSDGRRTFYVDDVKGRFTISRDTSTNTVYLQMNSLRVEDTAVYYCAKGRAAGTFDMWGQGTLVTVSS showed nd, 1.83, nd, nd, 2.44, 1.67 (mean 1.98).
The variant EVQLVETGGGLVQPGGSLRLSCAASKFDLNSYGISWVRQAPGKGPEWVSVIYSDGRRTFYKDSVKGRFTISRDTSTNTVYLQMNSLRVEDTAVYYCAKGRTAGTFDSWGQGTLVTVSS showed 1.53, 1.11, 0.36, 1.16, 0.19, 0.83 (mean 0.86).
The variant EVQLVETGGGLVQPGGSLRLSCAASGFTLNDYGISWVRQAPGKGPEWVSVIYSDGRRTFYGDSVKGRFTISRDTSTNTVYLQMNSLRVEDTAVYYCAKGRRALTFHSWGQGTLVTVSS showed nd, nd, nd, nd, nd, nd.